Calls of active or inactive are those of the source.
Legend:
[1] = molecular target: Nuclear receptor subfamily 2 group E member 1 (Homo sapiens) (UniProt Q9Y466); experiment: Inverse agonist activity at NR2E1 (unknown origin) at 1 uM
[2] = molecular target: Nuclear receptor subfamily 5 group A member 2 (Homo sapiens) (UniProt O00482); experiment: Antagonist activity at NR5A2 (unknown origin) at 1 uM
[3] = molecular target: T1, Peroxisome proliferator-activated receptor delta (Homo sapiens) (UniProt Q03181); experiment: Inverse agonist activity at NR1C2 (unknown origin) at 1 uM
T1 sequence (whole entry): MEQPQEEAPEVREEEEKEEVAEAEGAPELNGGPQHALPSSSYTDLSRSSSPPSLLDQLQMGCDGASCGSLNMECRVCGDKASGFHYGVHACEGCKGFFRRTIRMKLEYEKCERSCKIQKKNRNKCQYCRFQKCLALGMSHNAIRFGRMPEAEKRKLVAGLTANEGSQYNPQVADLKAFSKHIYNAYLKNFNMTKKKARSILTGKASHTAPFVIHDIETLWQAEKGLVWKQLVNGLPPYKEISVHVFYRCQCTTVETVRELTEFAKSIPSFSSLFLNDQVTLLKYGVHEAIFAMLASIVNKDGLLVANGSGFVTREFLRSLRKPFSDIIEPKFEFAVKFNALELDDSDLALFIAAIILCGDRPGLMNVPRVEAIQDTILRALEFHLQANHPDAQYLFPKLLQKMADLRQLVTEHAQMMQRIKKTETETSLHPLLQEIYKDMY

Sequences of proteins named here, by UniProt entry; tags and fusion partners are left off. A change or cut given only in a name is not applied to a line headed by its entry.
UniProt Q9Y466: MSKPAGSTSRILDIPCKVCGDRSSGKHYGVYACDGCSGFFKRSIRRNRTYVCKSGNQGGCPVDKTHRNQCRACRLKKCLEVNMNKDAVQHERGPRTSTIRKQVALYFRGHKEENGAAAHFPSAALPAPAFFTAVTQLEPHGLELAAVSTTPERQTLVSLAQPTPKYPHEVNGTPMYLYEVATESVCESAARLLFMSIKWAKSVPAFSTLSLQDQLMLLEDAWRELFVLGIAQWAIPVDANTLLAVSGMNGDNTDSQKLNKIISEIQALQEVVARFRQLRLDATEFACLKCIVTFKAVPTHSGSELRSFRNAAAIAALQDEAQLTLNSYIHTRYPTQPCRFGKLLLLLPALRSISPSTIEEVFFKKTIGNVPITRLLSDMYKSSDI
UniProt O00482, whole entry: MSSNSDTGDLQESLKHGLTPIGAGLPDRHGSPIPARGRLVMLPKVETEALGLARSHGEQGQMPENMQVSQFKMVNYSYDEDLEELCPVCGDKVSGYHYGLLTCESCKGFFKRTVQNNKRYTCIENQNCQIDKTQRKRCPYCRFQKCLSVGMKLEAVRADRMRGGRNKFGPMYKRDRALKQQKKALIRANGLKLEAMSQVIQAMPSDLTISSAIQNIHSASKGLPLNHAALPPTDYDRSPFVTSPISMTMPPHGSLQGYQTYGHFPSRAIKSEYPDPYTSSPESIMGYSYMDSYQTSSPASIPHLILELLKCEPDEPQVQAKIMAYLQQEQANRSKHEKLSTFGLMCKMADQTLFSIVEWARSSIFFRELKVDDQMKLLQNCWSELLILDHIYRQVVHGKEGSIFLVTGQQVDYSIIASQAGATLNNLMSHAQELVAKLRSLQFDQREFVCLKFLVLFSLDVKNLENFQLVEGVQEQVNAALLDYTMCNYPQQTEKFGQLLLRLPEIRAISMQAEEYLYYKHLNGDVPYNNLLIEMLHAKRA
UniProt Q13285, whole entry: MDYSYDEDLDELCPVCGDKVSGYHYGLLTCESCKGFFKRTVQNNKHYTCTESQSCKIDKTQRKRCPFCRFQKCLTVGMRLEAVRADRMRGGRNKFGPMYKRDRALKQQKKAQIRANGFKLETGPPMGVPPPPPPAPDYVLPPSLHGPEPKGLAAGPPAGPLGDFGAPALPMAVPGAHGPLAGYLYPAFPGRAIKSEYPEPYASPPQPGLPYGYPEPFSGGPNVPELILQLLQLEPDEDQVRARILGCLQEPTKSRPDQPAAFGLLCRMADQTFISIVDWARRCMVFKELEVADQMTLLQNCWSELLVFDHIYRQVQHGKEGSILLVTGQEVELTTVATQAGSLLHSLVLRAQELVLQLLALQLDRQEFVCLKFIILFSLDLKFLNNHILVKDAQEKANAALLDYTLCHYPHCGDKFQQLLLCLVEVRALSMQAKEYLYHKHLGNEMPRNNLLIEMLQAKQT
UniProt Q13133, whole entry: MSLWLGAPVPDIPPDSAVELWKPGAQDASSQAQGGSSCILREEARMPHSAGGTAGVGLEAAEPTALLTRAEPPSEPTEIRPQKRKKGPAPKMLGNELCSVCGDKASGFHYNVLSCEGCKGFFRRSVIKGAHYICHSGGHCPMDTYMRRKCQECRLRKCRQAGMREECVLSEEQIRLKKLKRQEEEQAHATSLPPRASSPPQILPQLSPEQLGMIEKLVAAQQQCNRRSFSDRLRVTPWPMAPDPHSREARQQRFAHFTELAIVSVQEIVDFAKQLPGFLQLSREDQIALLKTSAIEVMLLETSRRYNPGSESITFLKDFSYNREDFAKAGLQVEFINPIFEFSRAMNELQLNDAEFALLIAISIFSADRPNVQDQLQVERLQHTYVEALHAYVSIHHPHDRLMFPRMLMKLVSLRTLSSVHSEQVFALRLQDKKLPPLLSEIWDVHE

[4] = molecular target: T2, Bile acid receptor (Homo sapiens) (UniProt Q96RI1); experiment: Inverse agonist activity at NR1H4 (unknown origin) at 1 uM
T2 sequence (whole entry): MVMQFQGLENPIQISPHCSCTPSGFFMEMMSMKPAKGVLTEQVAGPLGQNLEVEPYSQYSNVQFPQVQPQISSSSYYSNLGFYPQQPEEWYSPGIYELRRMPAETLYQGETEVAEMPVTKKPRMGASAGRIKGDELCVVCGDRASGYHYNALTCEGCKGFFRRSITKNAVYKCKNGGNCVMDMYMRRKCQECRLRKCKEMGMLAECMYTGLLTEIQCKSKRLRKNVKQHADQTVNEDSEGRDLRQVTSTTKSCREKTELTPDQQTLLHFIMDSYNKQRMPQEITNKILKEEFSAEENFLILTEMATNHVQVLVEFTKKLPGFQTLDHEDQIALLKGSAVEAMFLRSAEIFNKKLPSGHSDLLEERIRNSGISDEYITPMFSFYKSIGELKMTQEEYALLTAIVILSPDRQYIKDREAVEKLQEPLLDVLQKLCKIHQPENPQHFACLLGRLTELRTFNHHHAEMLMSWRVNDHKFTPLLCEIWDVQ

[5] = molecular target: Steroidogenic factor 1 (Homo sapiens) (UniProt Q13285); experiment: Inverse agonist activity at NR5A1 (unknown origin) at 1 uM
[6] = molecular target: T3, Vitamin D3 receptor (Homo sapiens) (UniProt P11473); experiment: Agonist activity at NR1I1 (unknown origin) at 1 uM
T3 sequence (whole entry): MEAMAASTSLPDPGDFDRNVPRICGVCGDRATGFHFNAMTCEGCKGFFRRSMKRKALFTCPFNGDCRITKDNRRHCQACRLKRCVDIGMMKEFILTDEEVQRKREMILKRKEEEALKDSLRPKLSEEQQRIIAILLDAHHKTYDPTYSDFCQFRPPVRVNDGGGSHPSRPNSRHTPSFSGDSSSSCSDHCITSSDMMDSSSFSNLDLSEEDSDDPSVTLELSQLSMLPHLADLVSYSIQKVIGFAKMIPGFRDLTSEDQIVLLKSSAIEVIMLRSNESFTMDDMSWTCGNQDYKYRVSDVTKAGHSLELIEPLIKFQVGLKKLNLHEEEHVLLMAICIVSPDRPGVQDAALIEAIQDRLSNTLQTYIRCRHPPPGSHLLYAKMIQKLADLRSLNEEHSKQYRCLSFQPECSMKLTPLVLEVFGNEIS

[7] = molecular target: T4, Nuclear receptor subfamily 1 group D member 2 (Homo sapiens) (UniProt Q14995); experiment: Agonist activity at NR1D2 (unknown origin) at 1 uM
T4 sequence (whole entry): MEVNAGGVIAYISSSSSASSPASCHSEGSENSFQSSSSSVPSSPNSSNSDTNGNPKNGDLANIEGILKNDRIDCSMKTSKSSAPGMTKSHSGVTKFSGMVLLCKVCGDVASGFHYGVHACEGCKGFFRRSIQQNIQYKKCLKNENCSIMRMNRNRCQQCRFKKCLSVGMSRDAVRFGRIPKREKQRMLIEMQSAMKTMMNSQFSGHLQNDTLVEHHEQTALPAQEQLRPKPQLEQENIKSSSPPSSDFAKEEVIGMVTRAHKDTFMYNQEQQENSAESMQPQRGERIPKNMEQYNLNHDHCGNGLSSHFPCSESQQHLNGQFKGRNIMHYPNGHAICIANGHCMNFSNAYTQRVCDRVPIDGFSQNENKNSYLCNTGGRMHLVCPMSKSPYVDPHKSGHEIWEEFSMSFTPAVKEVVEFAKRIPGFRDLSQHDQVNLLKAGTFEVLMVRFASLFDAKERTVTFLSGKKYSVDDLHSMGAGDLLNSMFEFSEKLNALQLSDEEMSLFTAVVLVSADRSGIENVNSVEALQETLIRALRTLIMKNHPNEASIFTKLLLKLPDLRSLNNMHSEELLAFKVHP

[8] = molecular target: T5, Thyroid hormone receptor alpha (Homo sapiens) (UniProt P10827); experiment: Agonist activity at NR1A1 (unknown origin) at 1 uM
T5 sequence (whole entry): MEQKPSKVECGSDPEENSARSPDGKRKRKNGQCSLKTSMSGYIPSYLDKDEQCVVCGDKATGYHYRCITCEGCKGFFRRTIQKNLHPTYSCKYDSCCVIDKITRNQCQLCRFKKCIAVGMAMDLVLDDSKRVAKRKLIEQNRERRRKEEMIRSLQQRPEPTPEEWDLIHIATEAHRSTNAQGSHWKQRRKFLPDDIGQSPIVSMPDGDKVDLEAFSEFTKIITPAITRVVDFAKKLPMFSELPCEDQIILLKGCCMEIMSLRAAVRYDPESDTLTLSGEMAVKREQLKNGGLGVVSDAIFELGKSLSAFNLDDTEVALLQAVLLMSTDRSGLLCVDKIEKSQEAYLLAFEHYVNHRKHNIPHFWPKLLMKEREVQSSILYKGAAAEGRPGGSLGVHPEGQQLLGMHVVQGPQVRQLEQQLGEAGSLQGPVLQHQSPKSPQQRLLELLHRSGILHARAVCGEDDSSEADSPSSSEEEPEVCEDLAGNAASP

[9] = molecular target: Oxysterols receptor LXR-alpha (Homo sapiens) (UniProt Q13133); experiment: Inverse agonist activity at NR1H3 (unknown origin) at 1 uM
[10] = molecular target: Nuclear receptor subfamily 5 group A member 2 (Homo sapiens) (UniProt O00482); experiment: Inverse agonist activity at NR5A2 (unknown origin) at 1 uM

Measured: Activity

O=C(O)[C@@H]1C[C@H]1c1nc(-c2ccccc2)c(-c2cc(C(F)(F)F)cc(C(F)(F)F)c2)o1 (racemic)
inactive: all assays above

— ChEMBL document CHEMBL5375987, “Structural Fusion of Natural and Synthetic Ligand Features Boosts RXR Agonist Potency” (J Med Chem, 2023)
